Test results: patent US6008227A, “Process for blocking 5-HT and dopamine uptake with biologically active tropane derivatives” (Wake Forest University, priority 1993, dated 1999)
Read-outs that look alike come from different tables or passages of the source.

Amino acid sequences for entries named in this document (tags omitted).
UniProt P31652, whole entry: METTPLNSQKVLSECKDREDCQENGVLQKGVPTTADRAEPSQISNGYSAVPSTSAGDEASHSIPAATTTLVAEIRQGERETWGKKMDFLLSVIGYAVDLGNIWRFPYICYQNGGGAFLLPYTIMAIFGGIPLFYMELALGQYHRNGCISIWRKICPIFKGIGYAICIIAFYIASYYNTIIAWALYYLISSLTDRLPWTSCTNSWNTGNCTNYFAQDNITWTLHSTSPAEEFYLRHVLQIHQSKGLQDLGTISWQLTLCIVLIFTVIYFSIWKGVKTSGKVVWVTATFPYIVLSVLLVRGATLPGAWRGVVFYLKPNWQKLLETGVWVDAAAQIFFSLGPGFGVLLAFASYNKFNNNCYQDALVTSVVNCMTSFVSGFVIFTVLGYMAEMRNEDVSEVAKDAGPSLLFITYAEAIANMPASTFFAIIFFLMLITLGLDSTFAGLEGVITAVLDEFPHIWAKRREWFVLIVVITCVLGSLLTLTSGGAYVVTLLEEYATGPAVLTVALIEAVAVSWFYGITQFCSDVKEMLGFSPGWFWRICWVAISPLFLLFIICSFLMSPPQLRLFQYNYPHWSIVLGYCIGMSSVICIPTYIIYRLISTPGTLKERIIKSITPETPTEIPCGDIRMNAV
UniProt P23977, whole entry: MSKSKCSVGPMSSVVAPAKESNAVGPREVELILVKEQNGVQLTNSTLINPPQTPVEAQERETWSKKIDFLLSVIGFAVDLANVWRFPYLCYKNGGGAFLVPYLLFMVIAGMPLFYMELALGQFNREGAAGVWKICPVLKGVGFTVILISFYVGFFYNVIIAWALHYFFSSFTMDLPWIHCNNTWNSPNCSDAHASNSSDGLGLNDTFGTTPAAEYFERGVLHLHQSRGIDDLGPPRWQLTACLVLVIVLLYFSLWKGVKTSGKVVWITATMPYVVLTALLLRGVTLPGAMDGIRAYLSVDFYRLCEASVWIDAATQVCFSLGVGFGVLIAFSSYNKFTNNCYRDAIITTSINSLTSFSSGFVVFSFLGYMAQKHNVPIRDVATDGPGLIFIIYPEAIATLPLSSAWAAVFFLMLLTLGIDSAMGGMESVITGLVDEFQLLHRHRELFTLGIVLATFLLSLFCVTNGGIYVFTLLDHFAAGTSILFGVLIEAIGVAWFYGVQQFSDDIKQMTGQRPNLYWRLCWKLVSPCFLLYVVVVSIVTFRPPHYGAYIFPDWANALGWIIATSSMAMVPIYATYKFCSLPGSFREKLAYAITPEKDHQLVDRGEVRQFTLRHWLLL

Legend:
5-HT transporter [1] = target: T1, 5-HT transporter (Rattus norvegicus, UniProt P31652); test: Displacement of [^3 H]paroxetine binding to 5-HT transporter sites in rat frontal cortex; parameters: from tissue; host or cells: rat frontal cortex
dopamine transporter = target: T2, dopamine transporter (Rattus norvegicus, UniProt P23977); test: Displacement of [^125 I]RTI-55 binding to dopamine transporters in rat striatal membranes; conditions: 5-HT K1 / DA K1; higher numbers demonstrate relatively greater dopamine transporter potency
T2 construct: was used to label dopamine transporters in rat striatal membranes; from tissue; host or cells: rat striatal membranes

5-HT transporter [2] = target: T1, 5-HT transporter; test: Inhibition of [^3 H]5-HT uptake in dissociated frontal cortex cells from fetal and adult rat brain; type: cell-based; parameters: from tissue; host or cells: rat frontal cortex

| Compound | Ki (5-HT transporter [1]) | binding ratio (dopamine transporter) | Ki (5-HT transporter [1]; read-out: [^3 H] paroxetine K1, [^3 H]paroxetine, rat frontal cortex) | IC50 (5-HT transporter [2]) |
| --- | --- | --- | --- | --- |
| COC(=O)[C@@H]1[C@@H](c2ccccc2)C[C@@H]2CC[C@H]1N2C (relative stereo) [WF-6] | > 10 µM | – | – | – |
| COC(=O)[C@H]1[C@@H](c2ccccc2)C[C@@H]2CC[C@H]1N2C (relative stereo) [WF-10] | 1.29 ± 0.051 µM | 13.1 | – | – |
| COC(=O)[C@H]1[C@@H](OC(=O)c2ccccc2)C[C@@H]2CC[C@H]1N2C [cocaine, reference compound] | – | – | 0.302 ± 0.022 µM | 0.591 ± 0.048 µM |
